{"sequences": {"note": "By UniProt entry, the sequences of proteins in these tests, tags left out. Residues count along the entry.", "UniProt Q00987, 2-185 limits assumed": "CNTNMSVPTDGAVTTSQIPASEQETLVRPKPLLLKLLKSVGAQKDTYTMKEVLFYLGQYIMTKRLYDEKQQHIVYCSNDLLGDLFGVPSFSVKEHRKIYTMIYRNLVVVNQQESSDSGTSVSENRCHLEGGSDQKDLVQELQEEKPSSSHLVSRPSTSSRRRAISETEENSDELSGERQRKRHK"}, "source": "patent US8053457B2", "about": "“3-imidazolyl-indoles for the treatment of proliferative diseases” (Novartis AG, priority 2007, dated 2011)", "key": {"[1]": {"target": "Hdm2 protein (amino acids 2-185) (Homo sapiens, UniProt Q00987)", "assay": "Fluorescence polarisation assay, inhibition of p53-Hdm2 interaction", "conditions": "read-out: IC50 (μM) of p53-Hdm2 inhibition Fluorescence polarisation assay; Hdm2 3 nM, Cy5-labelled p53-derived peptide 1 nM", "procedure": "Fluorescence Polarisation Assay\nThe inhibition of p53-Hdm2 interaction is measured by fluorescence polarization. Fluorescence polarization measures the rotational movement of molecules in a homogeneous suspension. For this assay, Hdm2 protein (amino acids 2-185) is combined with a Cy5-labelled p53-derived peptide optimised for Hdm2 binding (J. Med. Chem. 2000, 43, 3205-3208). Upon excitation of the Cy5 fluorescent ligand with linearly polarized light, the peptide rotates faster and emits light which is perpendicularly polarized. If the peptide is bound by Hdm2, rotation will slow down and the perpendicular component will decrease. […] The ratiometric polarization assay readout is calculated from the parallel and perpendicular components of the fluorescence light with respect to the polarization of the excitation light.\nThe test is performed by combining 7 μl compounds diluted in dimethyl sulfoxide (DMSO) (10% final concentration) with 31.5 μl […] (final concentration 3 nM) in reaction buffer (PBS, 0.1% CHAPS, 1 mM DTT (dithiothreitol)). […] For measurement of samples, an Analyst AD multimode microplate reader (Molecular Devices Corporation, Sunnyvale, Calif., USA) with the following settings is used: Dichroic mirror 650 nm, Excitation 630 nm, Emission 695 nm. […] IC50 values are calculated by curve fitting using XLfit. […]"}, "[2]": {"target": "MDM4 protein (amino acids 2-185) (Homo sapiens, UniProt O15151)", "assay": "Time resolved fluorescence energy transfer (TR-FRET) assay, inhibition of p53-Hdm4 interaction", "type": "binding", "conditions": "read-out: IC50 (μM) of p53-Hdm4 inhibition (TR-FRET) Assay; MDM4-Bio 10 nM, Cy5-p53 peptide 20 nM", "procedure": "Time Resolved Fluorescence Energy Transfer (TR-FRET) Assay\nThe inhibition of p53-Hdm4 interaction is measured by time resolved fluorescence energy transfer (TR-FRET). Fluorescence energy transfer (or Foerster resonance energy transfer) describes an energy transfer between donor and acceptor fluorescent molecules. For this assay, MDM4 protein (amino acids 2-185), tagged with a C-terminal Biotin moiety, is used in combination with a Europium labeled streptavidin (Perkin Elmer, Inc., Waltham, Mass., USA) serving as the donor fluorophore. The p53 derived, Cy5 labeled peptide Cy5-TFSDLWKLL (p53 aa18-26) is the energy acceptor. Upon excitation of the donor molecule at 340 nm, binding interaction between MDM4 and the p53 peptide induces energy transfer and enhanced response at the acceptor emission wavelength at 665 nm. Disruption of the formation of the p53-MDM4 complex due to an inhibitor molecule binding to the p53 binding site of MDM4 results in increased donor emission at 615 nm. The ratiometric FRET assay readout is calculated from the raw data of the two distinct fluorescence signals measured in time resolved mode (countrate 665 nm/countrate 615 nm×1000). […]"}}}
{"smiles": "CN1CCN(CCNC(=O)c2[nH]c3cc(Cl)ccc3c2-c2c(-c3ccccc3)ncn2Cc2ccc(Cl)cc2)CC1", "values": [{"measurement": "IC50", "setting": "[1]", "result": 0.3, "unit": "µM"}, {"measurement": "IC50", "setting": "[2]", "result": 10.4, "unit": "µM"}]}
